B1: Histone acetyltransferase RTT109 (Saccharomyces cerevisiae), Q07794 (parent)
chain: MSLNDFLSSVLPVSEQFEYLSLQSIPLETHAVVTPNKDDKRVPKSTIKTQHFFSLFHQGKVFFSLEVYVYVTLWDEADAERLIFVSKADTNGYCNTRVSVRDITKIILEFILSIDPNYYLQKVKPAIRSYKKISPELISAASTPARTLRILARRLKQSGSTVLKEIESPRFQQDLYLSFTCPREILTKICLFTRPASQYLFPDSSKNSKKHILNGEELMKWWGFILDRLLIECFQNDTQAKLRIPGEDPARVRSYLRGMKYPLWQVGDIFTSKENSLAVYNIPLFPDDPKARFIHQLAEEDRLLKVSLSSFWIELQERQEFKLSVTSSVMGISGYSLATPSLFPSSADVIVPKSRKQFRAIKKYITGEEYDTEEGAIEAFTNIRDFLLLRMATNLQSLTGKREHRERNQPVPASNINTLAITMLKPRKKAKALPKT
B2: Vacuolar protein sorting-associated protein 75 (Saccharomyces cerevisiae), P53853 (parent)
chain: MMSDQENENEHAKAFLGLAKCEEEVDAIEREVELYRLNKMKPVYEKRDAYIDEIAEFWKIVLSQHVSFANYIRASDFKYIDTIDKIKVEWLALESEMYDTRDFSITFHFHGIEGDFKEQQVTKVFQIKKGKDDQEDGILTSEPVPIEWPQSYDSINPDLIKDKRSPEGKKKYRQGMKTIFGWFRWTGLKPGKEFPHGDSLASLFSEEIYPFCVKYYAEAQRDLEDEEGESGLSADGDSEDDDGSLGEVDLPLSDEEPSSKKRKV

Variants of: B1
Settings: with vps75_yeast VPS75, P53853
For L148D, the “effect of a mutation on the interaction” value was “disrupting interaction”. In the case of E378R;N382R, the “effect of a mutation on the interaction” value is reported as “decreasing interaction”.

Variants of: B1
Settings: with vps75_yeast VPS75, P53853
Remark: another data set of the same source
L148D;I150D;L151D was tested, and the “effect of a mutation on the interaction” value was “disrupting interaction”. In the case of I150D;L151D, the “effect of a mutation on the interaction” value is reported as “disrupting interaction”. For R355E;K356E, the “effect of a mutation on the interaction” value was “decreasing interaction”.

Variants of: B2
Settings: with rt109_yeast RTT109, Q07794
For A19D, the “effect of a mutation on the interaction” value was “decreasing interaction”. C21E;V25S;I28E;V32E was tested, and the “effect of a mutation on the interaction” value was “disrupting interaction”. With R73D;A74D the “effect of a mutation on the interaction” value was “disrupting interaction”. R173E;K177E was tested, and the “effect of a mutation on the interaction” value was “decreasing interaction”. With E218K;D222K the “effect of a mutation on the interaction” value was “disrupting interaction”.

Variants of: B2
Settings: with rt109_yeast RTT109, Q07794
Remark: another data set of the same source
In the case of E218K;D222K, the “effect of a mutation on the interaction” value is reported as “decreasing interaction”.

Reference: IntAct's records for PubMed 21256037
